# This is a selection; strong and weak results do not stand in their true shares. Calls of active or inactive are those of the source.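 How the source made its calls: active means inhibition above the hit cutoff derived for the primary screen (cut at about 15% in these data); inactive means the rest.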
# The chains behind the UniProt entries cited, without tags or fusion partners. Where a name states a change or a piece, a line headed by the entry shows the natural chain unless it says otherwise.
# UniProt O75884: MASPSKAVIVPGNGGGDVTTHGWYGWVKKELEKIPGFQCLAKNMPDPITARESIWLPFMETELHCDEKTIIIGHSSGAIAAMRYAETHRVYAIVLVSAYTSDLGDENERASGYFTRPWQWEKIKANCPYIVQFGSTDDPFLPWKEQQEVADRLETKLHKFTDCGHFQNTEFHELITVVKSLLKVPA
# Biological target: Serine hydrolase RBBP9 (Homo sapiens) (UniProt O75884)
# Test: RBBP9 serine hydrolase blockers re-tested – biochemical, fluorescence polarization, FP-Rh probe, triplicate, confirmation (AID 1537);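 further: 0% = RBBP9 with DMSO and 100% = wells lacking RBBP9 protein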
# Details: recombinant RBBP9, FP-Rh probe fluorescence polarization; at 7.94 µM; stronger effect = higher value
row,Compound,inhibition
1,CS(=O)(=O)c1cc([N+](=O)[O-])c2no[n+]([O-])c2c1,active: 48.8%
2,O=[N+]([O-])c1cc([N+](=O)[O-])c(CCNc2ccccc2)c([N+](=O)[O-])c1,active: 20.9%

# From PubChem BioAssay AID1537 (The Scripps Research Institute Molecular Screening Center, 2009)
